This experiment addresses acrylodan-labeled C-terminal catalytic kinase/phosphatase domain of PNKP (human). The experiment in a line: other fluorescence titration.

Amino acid sequences for entries named in this document (tags omitted).
UniProt P18887, whole entry: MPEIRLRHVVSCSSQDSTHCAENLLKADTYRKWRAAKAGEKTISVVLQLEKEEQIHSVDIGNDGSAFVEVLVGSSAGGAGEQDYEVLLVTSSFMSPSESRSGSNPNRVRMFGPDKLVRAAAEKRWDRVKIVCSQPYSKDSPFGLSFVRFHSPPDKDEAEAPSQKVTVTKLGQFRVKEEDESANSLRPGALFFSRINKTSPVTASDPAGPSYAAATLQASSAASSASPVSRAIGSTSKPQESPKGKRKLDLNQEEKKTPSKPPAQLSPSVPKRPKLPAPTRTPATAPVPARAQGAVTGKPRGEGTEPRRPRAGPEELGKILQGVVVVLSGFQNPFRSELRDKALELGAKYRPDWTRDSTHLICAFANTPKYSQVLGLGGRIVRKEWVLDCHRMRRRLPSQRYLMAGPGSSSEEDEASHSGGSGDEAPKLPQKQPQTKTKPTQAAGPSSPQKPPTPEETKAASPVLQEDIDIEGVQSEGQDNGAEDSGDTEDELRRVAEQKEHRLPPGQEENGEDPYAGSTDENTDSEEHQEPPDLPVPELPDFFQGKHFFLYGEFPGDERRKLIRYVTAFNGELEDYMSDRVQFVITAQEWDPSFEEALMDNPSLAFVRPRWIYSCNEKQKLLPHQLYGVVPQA

Regarding “non-phosphorylated XRCC1 (from UniProt P18887 1-633) (natural protein)”, the stoichiometry N turned out to be 1.1.

What is called stoichiometry N is the number of molecules, sites or subunits per partner or assembly.
